## Yeast mating assay B: variants of the scFv Ab-14

Target peptide (SARS-CoV-2 spike, HR2 region): PDVDLGDISGINAS

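This is the validation round: designs drawn from the data on random variants, tested in the same kind of assay. Group labels follow the data file (Ctrl: baseline library sampled from a position-specific scoring matrix, with some repeated check sequences; En: ensemble of fine-tuned language models; GP: Gaussian process model; HC: hill climbing; Gen: genetic algorithm; Gibbs: Gibbs sampling; a sequence that several methods proposed may carry one label only). Affinity was read by AlphaSeq, a pooled yeast mating assay with surface-displayed partners. Binding brings cells together so that they mate, and sequencing counts the barcode pairs among the diploids. The ratio of observed to expected reads was calibrated, replicate by replicate, on BCL2-family standards whose Kd was known from biolayer interferometry. The assay was run in six technical replicates.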

Parent: Ab-14, a human scFv built as VH, the linker GGGGSGGGGSGGGGS, VL. Only the CDRs of the light chain vary.
VH: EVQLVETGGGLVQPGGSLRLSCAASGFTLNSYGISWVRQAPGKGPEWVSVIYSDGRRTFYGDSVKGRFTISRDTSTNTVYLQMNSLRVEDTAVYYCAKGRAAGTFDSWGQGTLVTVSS
VL: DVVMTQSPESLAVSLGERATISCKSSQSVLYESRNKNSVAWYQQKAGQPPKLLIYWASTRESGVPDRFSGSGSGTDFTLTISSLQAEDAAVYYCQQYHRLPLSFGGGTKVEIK

The parent's light chain CDRs are KSSQSVLYESRNKNSVA, WASTRES, QQYHRLPLS; each variant's own CDRs replace them letter for letter.
Values are log10 of the apparent Kd in nM; lower means stronger binding.
Averages over replicates are reported, and they cover detected replicates only.
Where no diploid with the target was found in any replicate, the entry reads "nd": below detection, most likely a poor binder, though not proof of it.

| CDR-L1 | CDR-L2 | CDR-L3 | group | mean log10 Kd (nM) | seen in |
|---|---|---|---|---|---|
| HISDLIMVAYRNKNSVA | DESTRPD | QQYHRLPLS | En_HC | 0.40 | 6 of 6 |
| KLQQSALYESRNKNSVA | NASTRES | QQYHRLPLS | GP_Gen | -0.14 | 6 of 6 |
| NISHFMDVTAKKNNNVA | EMTMREM | QQYHHLPLS | En_Gen | 1.49 | 6 of 6 |
| SISMLLNFESKMGNNVA | QMETRIN | QQYDRLPLS | En_Gen | 1.32 | 6 of 6 |
| KLSQSMLYESRNKNSVA | NASTRMK | QQYHRLPLS | GP_Gen | 0.01 | 6 of 6 |
| KISQMVKVGATHNNSIA | EEQTRAK | QQYHRLPLS | En_Gen | 1.28 | 6 of 6 |
| MISQSFLIGSRAKNSVA | QTSERES | QQYDRLPLS | En_HC | -0.29 | 6 of 6 |
| KISCAVYYGDRNKMSVA | DASQRES | QQYHRLPLS | GP_Gibbs | 0.29 | 6 of 6 |
| KSSQSVLIESVNKNSVA | WASTRES | QQYHRLPLS | Ctrl | 1.30 | 6 of 6 |
| KVSQSHLYESRNWNAVA | EASQRPS | QQYHRLPLS | GP_Gibbs | -0.08 | 6 of 6 |
| KLSQSVLYESRNKNSVA | HASTRFS | QQYHRLPLS | GP_Gen | 0.48 | 6 of 6 |
| MMSYGWLYGSRNKRNVA | DHETRED | QQYDRLPLS | En_HC | 0.26 | 6 of 6 |
| KFQQQDEYSSRNKNSVA | NASTRSQ | QQYHRLPLS | GP_Gibbs | -0.34 | 6 of 6 |
| KLSMSELYESRNKNSVA | EASTRES | QQYHRLPLS | GP_Gen | -0.36 | 6 of 6 |
| KCSQSVLYESMNKNSVA | SASTRES | QIYHRLPLS | Ctrl | 2.06 | 6 of 6 |
| KVSAQVEYQERNINSVA | EASQRES | QQYHRLPLS | GP_Gibbs | 0.18 | 6 of 6 |
| MSYGGDMMESVTRNSVA | NAETRED | QDYHRLPLS | En_HC | 1.01 | 5 of 6 |
| RLNVFQNVITQQNNNIA | QAEQKVH | QQYMRLPLY | En_Gibbs | -0.06 | 6 of 6 |
| SISQLVAYGSRNKNSVA | QMSTREN | QQYDRLPLS | En_HC | 0.62 | 5 of 6 |
| KIGMTLNQLMQKKNNVA | DLVTREA | QQYHRLPLS | En_Gen | -0.10 | 6 of 6 |
| IISQMMLYESATHNSIA | QTSTREE | QQYHHLPLS | En_HC | 1.14 | 6 of 6 |
| KLQQSWLYESRNKNSVA | NASTREM | QQYHRLPLS | GP_Gen | -0.01 | 6 of 6 |
| KLHQSDGYEQRNKNSVA | SASTRSH | QQYHRLPLS | GP_Gibbs | 0.27 | 6 of 6 |
| MISQLYNMGSFAINSVA | QASVRNE | QQYDRLPLM | En_Gen | 2.01 | 4 of 6 |
| HLSYSVDLESVHKNSIA | DLMTRES | QQYHRLPLS | En_HC | -0.09 | 6 of 6 |
| KLSQSVLYESRNKNSVA | NASTRES | QNYHRLPLS | GP_Gen | 1.04 | 6 of 6 |
| MLSDVTNGMARKHNSVA | DNSTREK | QQYDRLPLS | En_Gen | 1.61 | 5 of 6 |
| KSSQSVLIESRNKNSVA | WASTRES | QQYHRLPLS | Ctrl | 2.63 | 3 of 6 |
| KSSQSVLYESQNKNSVA | NASTRES | NQYQRLPLS | Ctrl | 0.93 | 6 of 6 |
| KSKQSVLYETRNKNSVA | EASIRES | QQYHRLPLS | Ctrl | -0.08 | 6 of 6 |
| KISQMVRVGATHNNSIA | EEVTRAK | QQYHRLPLS | En_Gen | 1.33 | 6 of 6 |
| KSSQSVLYESRNCNSVA | EASTRES | QQYHRLPLS | Ctrl | 0.64 | 6 of 6 |
| ILSDSVHTLSRNKNSVA | DNSTRES | QQYDRLPLS | En_HC | 1.94 | 5 of 6 |
| KSSQSFLYESRWKNSVA | DASQRES | QQYHRLPLS | GP_HC | 0.10 | 6 of 6 |
| MIYGAAMELGRAANSIA | DNVTKYD | QQYERLPLS | En_Gen | 3.55 | 3 of 6 |
| KFSQSELYESRNKNSVA | NASTRLS | QQYHRLPLS | GP_Gen | 0.38 | 6 of 6 |
| KSSQSVLSESRNKNSVA | AASTRES | QQYHRLPSS | Ctrl | nd | 0 of 6 |
| HLSDSVLYESRNKNSVA | NASTRES | QQYHRLPLK | GP_HC | -0.24 | 6 of 6 |
| KLDYSWPGESRNKNSVA | DASTRES | QQYHRLPLS | GP_Gibbs | 0.34 | 6 of 6 |
| TITHFMDNLSQNRNNVA | DTSTLGS | QSYDRLPLS | En_Gen | 0.49 | 6 of 6 |
| KSSQSVLYESRNKNSVA | TASTRES | QQYCRLPLS | Ctrl | 1.42 | 4 of 6 |
| KLSEISHFESKKKNSVA | ENNTREE | QQYDHLPLS | En_HC | 1.17 | 4 of 6 |
| MMTMFPNEPTGDSNAIA | DTNQLNT | QQYQRLPLM | En_Gibbs | 0.58 | 6 of 6 |
| KSTQSVLYHSRNKNSVA | DASTRES | QQMHRLTLS | Ctrl | 0.31 | 6 of 6 |
| KFMQSMLYESRNQNNVA | DASTRMS | QQYHRLPLS | GP_Gibbs | -0.19 | 6 of 6 |
| KLSQSVLYESRDKNAVA | DASTRES | QQYHRLPLS | GP_Gen | -0.23 | 6 of 6 |
| MIEEDNAGEQKNSSNIA | SVDQKED | QQYQRLPLM | En_Gibbs | 1.09 | 6 of 6 |
| IVSQMMLWGMHLKNSIA | EAQTRLN | QQYDRLPLI | En_Gen | 1.56 | 5 of 6 |
| KLQQSVLYESRNKNSVA | GASTRLS | QQYHRLPLS | GP_Gen | 0.41 | 6 of 6 |
| KSLQSNLYESRNKNSVA | HASTRED | QQYHQLPLS | GP_HC | -0.23 | 6 of 6 |
| KISQSVLYEDRNKNSVA | NASTRLS | QQYHRLPLS | GP_Gen | -0.13 | 6 of 6 |
| KSSQSVLYESRNKNSVA | WASTRFR | QQYSRLPLS | Ctrl | 1.57 | 1 of 6 |
| KSKQSVLYESRNKQWVA | WASTRES | QQYHRLPLS | Ctrl | nd | 0 of 6 |
| KIGMQVTYESTVNNAIA | QMTTREE | QQYHRLPLS | En_HC | 0.17 | 6 of 6 |
| KSYQGVLYESRNKNSVA | GASLRES | QQYHRLPLS | GP_HC | 0.66 | 6 of 6 |
| KLSMSYRTESENKNSIA | ELVTRMS | QQYHRLPLS | En_HC | 1.09 | 6 of 6 |
| KLMQEDEYQSRNPNSVA | QASERES | QQYHRLPLS | GP_Gibbs | -0.74 | 6 of 6 |
| SLSESEREEFSHEQNIA | DGTEHMR | QQYFQLPLL | En_Gibbs | 0.96 | 6 of 6 |
| SIAESVHMESRNKNSVA | DNSTRES | QHYHRLPLS | En_HC | 2.73 | 2 of 6 |
| KLSSVTGHMSMAKNNVA | EMETREN | QQYNRLPLS | En_Gen | 2.07 | 5 of 6 |

Picked from the list: the 8 lowest averages where every replicate gave a value.

| CDR-L1 | CDR-L2 | CDR-L3 | group | mean log10 Kd (nM) | seen in |
|---|---|---|---|---|---|
| KLMQEDEYQSRNPNSVA | QASERES | QQYHRLPLS | GP_Gibbs | -0.74 | 6 of 6 |
| KLSMSELYESRNKNSVA | EASTRES | QQYHRLPLS | GP_Gen | -0.36 | 6 of 6 |
| KFQQQDEYSSRNKNSVA | NASTRSQ | QQYHRLPLS | GP_Gibbs | -0.34 | 6 of 6 |
| MISQSFLIGSRAKNSVA | QTSERES | QQYDRLPLS | En_HC | -0.29 | 6 of 6 |
| HLSDSVLYESRNKNSVA | NASTRES | QQYHRLPLK | GP_HC | -0.24 | 6 of 6 |
| KSLQSNLYESRNKNSVA | HASTRED | QQYHQLPLS | GP_HC | -0.23 | 6 of 6 |
| KLSQSVLYESRDKNAVA | DASTRES | QQYHRLPLS | GP_Gen | -0.23 | 6 of 6 |
| KFMQSMLYESRNQNNVA | DASTRMS | QQYHRLPLS | GP_Gibbs | -0.19 | 6 of 6 |

Of ten entries with the parent sequence, four were seen in most replicates (averages 0.34 to 2.37), three in one and three in none, so single entries are noisy.
Empty control strains, which show no peptide, gave a signal in 4% of pairings with all light chain designs; the median was 2.64 and 95% of these signals were weaker than 1.59. No background was subtracted.
Values of this round are not directly comparable with the first-round values of the same sequences.
The authors averaged sequences with at least three values out of six and counted those with two or fewer as poor binders.

Values reported by Li et al. 2023, doi:10.1038/s41467-023-39022-2 (FLAb copy).